Results on one molecule are retold here after ChEMBL document CHEMBL3785048, “Effects of polar receptor agonists designed for the periphery on ATP-induced Ca2+release from keratinocytes” (Medchemcomm, 2016).

Chains of the proteins cited; added tags and fusions are not shown. Lines headed by an entry give the natural chain unless they say otherwise; changes in a name come on top.
UniProt P41145: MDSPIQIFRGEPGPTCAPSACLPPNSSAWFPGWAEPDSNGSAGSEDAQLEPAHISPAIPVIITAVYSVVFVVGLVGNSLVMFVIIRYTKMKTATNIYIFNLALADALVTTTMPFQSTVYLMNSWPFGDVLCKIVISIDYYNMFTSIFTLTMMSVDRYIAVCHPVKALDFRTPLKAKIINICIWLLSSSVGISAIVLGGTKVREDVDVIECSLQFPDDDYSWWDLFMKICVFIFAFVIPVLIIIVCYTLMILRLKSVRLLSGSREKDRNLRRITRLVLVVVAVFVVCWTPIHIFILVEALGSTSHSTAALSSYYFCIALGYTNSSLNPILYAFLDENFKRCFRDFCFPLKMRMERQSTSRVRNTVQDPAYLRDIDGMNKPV

The EC50 is the concentration giving half of the maximal effect.

In this assay the target is Kappa-type opioid receptor (Homo sapiens, UniProt P41145). Nature of the assay: Agonist activity at human kappa opioid receptor expressed in HEK-293 cells after 45 mins by [35S]GTP-gamma-S binding assay in presence of 10 uM of GDP. It counts as cell-based, HEK293. On the technique in general: Binding of GTPγS marks nucleotide exchange on a G protein.

For `COC(=O)N1CCN(C(=O)Cc2ccc(Cl)c(Cl)c2)C2C(N3CCCC3)CCCC21` (stereo unspecified), the EC50 is 20 nM.
